ALDH1A1 block: ALDH1A1 (human) enzyme inhibition; P00352; Purified ALDH1A1, NADH fluorescence, propionaldehyde substrate; Potency, µM (highest dose often 75.3 µM), inactives show top-dose activity, negative = inhibition, hits mostly inhibitors; hit rate 7.3% among 220,000; AID 1030; active means well fitted inhibition curve with a large enough effect, not every such curve was filed as active; inconclusive means small, poorly fitted or top-dose-only effect, or another doubt; inactive means no such curve, though single readings can be large or run the other way;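 further: potency means the concentration at half of the fitted maximal effect; plate controls were no enzyme wells and a reference inhibitor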
G9a inh: G9a (human) methyltransferase inhibition; Potency, µM (series often up to 102 µM), inactives show at the top dose activity, negative = inhibition, most hits filed as inhibitors; G9a H3K9 monomethylation, AlphaScreen, 2 h; hit rate 8.8% among 350,000; further: potency means the concentration at half of the fitted maximal effect; on the % scale 0 is the no-effect control and ±100 the full control effect; nearly all actives have a fitted effect of over 75% in size
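Chemiluminescent proximity detection of H3K9 monomethylation, read after 10 min bead incubation in the dark. Reaction: 20 nM G9a, 500 nM biotin-H3K9 peptide, 20 uM SAM cofactor, 2 h, room temperature, following 15 min enzyme-compound preincubation.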
miR-21 FLuc: miR-21 reporter, rising signal. HeLa miR-21 FLuc reporter, luciferase, 48 h. Potency, µM (highest dose often 38.3 µM), for the others: at the highest dose reporter change, positive = more light. 340,000 tested, under 10 active. AID 2288; active = well fitted rising curve with a large enough effect; inconclusive = small, poorly fitted or top-dose-only effect; inactive = no such curve, though single readings can be large or run the other way;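 further: % of control where 0% means no effect; miR-21 action dims this reporter so a rising signal means less miR-21 action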
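HeLa cells endogenously expressing miR-21, stably carrying CMV-driven firefly luciferase with a downstream miR-21 binding site, 2000 cells/well. Titrations up to approximately 40 uM, 48 hours; luciferase luminescence read.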
Sfp PPTase inh: qHTS Assay for Inhibitors of Bacillus subtilis Sfp phosphopantetheinyl transferase (PPTase); 4'-phosphopantetheinyl transferase ffp (Bacillus subtilis), Q9F4F7; Biochemical Sfp PPTase activity, qHTS; Potency, µM, for inactives: max response, negative = inhibition, most hits filed as inhibitors; hit rate 3.5% among 310,000; AID 1490, 2009; active = well fitted inhibition curve with a large enough effect; inconclusive = small, poorly fitted or top-dose-only effect, or another doubt; inactive = no such curve, though single readings can be large or run the other way;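 also: the enzyme is Sfp with the accession as filed and its product quenches rhodamine fluorescence; potency is read from the fitted curve at half-maximal effect; 0% = enzyme reaction without inhibitor and -100% = no enzyme wells; top concentration of the series not given in the record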
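Step 1, compound plus 15 nM Sfp-PPTase, 15 min, room temperature. Step 2, add rhodamine-CoA (5 uM) and BHQ-2-YbbR (12.5 uM). Step 3, read 525/598 nm fluorescence at 0 and 30 min.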
KDM4E inh: blocks human JMJD2E demethylase activity. JMJD2E catalytic domain, FDH-coupled NADH fluorescence (FDH is formaldehyde dehydrogenase). hit rate 1.6% among 230,000. Potency, µM (highest dose often 57.1 µM), inactives show top-dose activity change, negative = inhibition, most hits filed as inhibitors. B2RXH2; active means well fitted inhibition curve with a large enough effect, not every such curve was filed as active; inconclusive means small, poorly fitted or top-dose-only effect, or another doubt; inactive means no such curve, though single readings can be large or run the other way;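 further: potency means the concentration at half of the fitted maximal effect; 0% = wells with enzyme and -100% = buffer wells without enzyme; nearly all actives have a fitted effect of over 50% in size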
Lamin A splicing: modulators of lamin A splicing | HeLa LMNA splicing GFP/RFP minigene ratio, 48 h | Potency, µM (series often up to 46.1 µM), for the others: top-dose ratio change, negative = inhibition, actives largely listed as inhibitors | hit rate 0.01% among 200,000 | AID 1487; active means well fitted inhibition curve with a large enough effect in the signal ratio, with a control signal flat, not every such curve was filed as active; inconclusive means small, poorly fitted or top-dose-only effect, or effect the other way, or a change in a side signal; the % refers to the signal ratio; further: potency means the concentration at half of the fitted maximal effect; on the % scale 0 is the no-effect control and ±100 the full control effect
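S3 HeLa cells stably expressing lamin A-EGFP splicing minigene plus DsRed2, 600 cells/well, 48 h compound exposure at 37C. Laser-scanning cytometry; analysed as GFP (500-530 nm)/RFP (575-640 nm) total intensity ratio; 0.5% DMSO vehicle.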
* = called active by the depositor; ? = inconclusive; . = not tested or not shown; [ ] = dose if it differs, or a comment. Rows were chosen to be rich in hits. Some 13% of all compounds tested hit in one or more screens of this group. Unless noted, the call rests on the fitted dose curve; in most records, active means well fitted curve in the direction sought with a large enough effect; inconclusive means small, poorly fitted or top-dose-only effect, or another doubt; inactive means no such curve, though single readings can be large; an effect the other way counts as inactive or inconclusive.

#	Structure	ALDH1A1 block	G9a inh	miR-21 FLuc
1	COc1ccc2c(c1)c(C(=O)N/N=C/c1ccc(Br)cc1)c(C)n2C	.	6.5%[59 µM]	19.2%
2	COc1ccc(NC(=O)c2nc3nc(C)cc(C(F)F)n3n2)c(C)c1	.	-13.8%[59 µM]	-14.7%
3	CCN(C(=O)CO/N=C/c1ccc(OC)cc1OC)c1c(N)n(Cc2ccccc2)c(=O)[nH]c1=O	.	-11.2%[2.33 µM]	.
4	COc1ccc2c(c1)c(/C=N/Nc1ccc(C(=O)O)cc1)c(C)n2C	.	8.91µM*	-54.3%
5	COc1ccc2c(/C=N/Nc3ccc(C(=O)O)cc3)c[nH]c2c1	.	?	-58.7%
6	COc1ccc2nc(C)cc(SCC(=O)N/N=C/c3ccc(O)c(O)c3)c2c1	28.2µM*	35.5µM*	-9.1%
7	CCN(CC)c1ccc(/C=C(\C#N)C(=O)c2ccc(Br)cc2)cc1	11.2µM*	15.5%[59 µM]	5.6%
8	CCN(CC)c1ccc(/C=C(\C#N)C(N)=O)cc1	31.6µM*	14.4%	-60.4%

#	Sfp PPTase inh	KDM4E inh	Lamin A splicing
1	-14.6%	-4.2%	.
2	.	.	.
3	.	.	.
4	-5.9%	?	.
5	-26.1%	.	.
6	-19.8%	5.01µM*	.
7	-9.5%	-0.7%	?
8	9.8%	-4.0%	20.5%[46 µM]

Further compounds.
#	Structure	ALDH1A1 block	G9a inh	miR-21 FLuc
9	CN(C)c1ccc(/C=C(\C#N)C(=O)c2ccccc2)cc1	7.08µM*	9.8%	0.5%
10	CN(C)c1cccc(/C=C(\C#N)c2ccccc2)c1	?	44.7µM*	-18.3%
11	Cc1cccc(C(=O)N2CCc3cc(CNC(=O)c4ccc(Br)o4)ccc32)c1	.	-31.9%[59 µM]	14.6%
12	Cc1ccc(NC(=O)Cn2c(=O)ccc3cc(S(=O)(=O)N4CCCC4)ccc32)cc1C	.	16.0%[59 µM]	-3.6%
13	Cc1ccccc1NC(=O)c1ccccc1NC(=O)c1ccccc1F	.	17.5%	0.0%
14	N#CC(=Cc1ccc(O)cc1)C(N)=C(C#N)C#N	.	-7.7%[59 µM]	.
15	CCN(CC)c1ccc(/C=C(\C#N)C(N)=S)cc1	.	20µM*	-7.3%
16	Cn1cccc1/C=C(\C#N)c1ccccc1	-10.0%	22.4µM*	-5.0%

#	Sfp PPTase inh	KDM4E inh	Lamin A splicing
9	-5.1%	8.6%	20.1%[46 µM]
10	-6.2%	1.9%	.
11	.	.	?
12	.	.	-14.5%[46 µM]
13	0.4%	.	.
14	.	.	.
15	?	-10.3%	.
16	2.3%	10.1%	-9.5%[46 µM]

More results:
#	Structure	ALDH1A1 block	G9a inh	miR-21 FLuc
17	N#C/C(=C\c1ccccc1)C(=O)NC(=O)Oc1ccccc1	-33.6%	16.4%	-0.6%
18	CCOC(=O)NC(=O)/C(C#N)=C/c1ccc(N(C)C)cc1	12.6µM*	6.0%	-30.3%
19	N#CC(C#N)=C(N)/C(C#N)=C/c1ccc(O)cc1	2.24µM*	?	.
20	c1ccc2c(N3CCNCC3)nc(-c3ccc4c(c3)OCO4)nc2c1	?	.	.
21	O=C(CCC(=O)c1ccc(F)cc1)NC1CCCN(Cc2ccccc2F)C1 (stereo not given)	.	.	0.6%
22	N#C/C(=C\c1cc(O)c(O)c(O)c1)C(N)=O	.	.	-0.8%
23	O=C1C(Cl)=C(N2CCN(c3ccccc3[N+](=O)[O-])CC2)C(=O)c2ccccc21	7.08µM*	7.94µM*	-2.5%
24	CCN1C(=O)C2CCCCN2c2ccc(C(=O)NCCOC)cc21 (stereo not given)	.	79.4µM*	-0.8%

#	Sfp PPTase inh	KDM4E inh	Lamin A splicing
17	8.0%	7.4%	5.7%
18	2.5%	-15.0%	.
19	.	-12.4%	-5.3%
20	-11.6%	-24.9%	-24.9%
21	8.7%	.	.
22	3.55µM*	1µM*	.
23	-9.0%	-24.3%	?
24	3.5%	.	.

Later entries.
#	Structure	ALDH1A1 block	G9a inh	miR-21 FLuc
25	Cc1cccc(CNC(=O)c2ccc3c(c2)N(C)C(=O)C2CCCCN32)c1 (stereo not given)	.	-17.1%[59 µM]	14.0%
26	CCOC(=O)C1(CCCc2ccccc2)CCN(C(=O)COC)CC1	.	?	-3.7%
27	CCOC(=O)C1(CCCc2ccccc2)CCN(C(=O)c2cncs2)CC1	5.62µM*	12.3%	1.2%
28	CCOC(=O)C1(CCCc2ccccc2)CCN(C(=O)CCc2cnccn2)CC1	3.98µM*	-1.6%	0.5%
29	CCOC(=O)C1(CCCc2ccccc2)CCN(C(=O)c2ocnc2C)CC1	0.891µM*	-2.7%[59 µM]	-0.6%
30	CCOC(=O)C1(CCCc2ccccc2)CCN(C(=O)C(C)n2cncn2)CC1 (stereo not given)	7.08µM*	4.2%	-3.6%
31	CCOC(=O)C1(CC2CC2)CCN(C(=O)c2ocnc2C)CC1	0.9%	-12.8%	-41.8%
32	Cc1ccc(O)c(-c2cc(-c3ccc(F)cc3)no2)c1	.	12.6%	-43.9%

#	Sfp PPTase inh	KDM4E inh	Lamin A splicing
25	.	.	-17.5%[46 µM]
26	13.6%	5.1%	.
27	11.0%	1.3%	.
28	-9.5%	0.7%	.
29	3.5%	5.5%	.
30	-1.3%	-4.5%	?
31	-1.2%	3.2%	-0.6%[46 µM]
32	30.2%	.	.

Continued:
#	Structure	ALDH1A1 block	G9a inh	miR-21 FLuc
33	S=c1[nH]c2cnccc2n1Cc1ccccc1	.	7.08µM*	-12.7%
34	S=c1[nH]c2ccccc2n1Cc1ccccc1	.	.	-13.0%
35	O=c1c2ccc(Cl)cc2[nH]c(=S)n1Cc1cccnc1	11.3%	16.3%	-4.2%
36	Nc1c(-c2cccc(Cl)c2)cnc2c(-c3ccccc3)cnn12	.	0.9%[2.33 µM]	-73.2%
37	N#CCC(=O)Nc1ccc(C(=O)NCC(c2ccco2)N2CCCCC2)cc1 (stereo not given)	-9.3%	-2.8%[59 µM]	4.5%
38	O=C(O)c1ccc2c(c1)ncn2C1CCCCCC1	.	10.2%[59 µM]	6.5%
39	O=C(NC1CCCCC1)N1CCC(n2cnc3ccccc32)CC1	5.7%	56.2µM*	0.7%
40	COc1ccc(CCn2c3c(c(=O)[nH]c2=O)C(NC(=O)c2ccc(C(C)(C)C)cc2)(C(F)(F)F)C(=O)N3)cc1OC (stereo not given)	.	-36.7%[59 µM]	-5.2%

#	Sfp PPTase inh	KDM4E inh	Lamin A splicing
33	?	.	.
34	14.1µM*	.	.
35	-9.0%	5.7%	-8.2%
36	15.8%	.	.
37	-0.3%	-20.0%	10.6%[46 µM]
38	89.1µM*	-4.8%	.
39	-6.8%	-15.7%	4.5%
40	.	.	.

Next structures.
#	Structure	ALDH1A1 block	G9a inh	miR-21 FLuc
41	Cc1ccc(Cn2c(C(=O)O)c(CNCc3cccs3)c3ccc(C)cc32)cc1	.	-9.3%[59 µM]	8.0%
42	O=C(O)c1ccc(/C=N/N2CCN(Cc3ccc(Cl)cc3)CC2)cc1	11.9%	.	4.1%
43	CSc1ccc(/C=N/N2CCN(Cc3ccccc3)CC2)cc1	-8.2%	.	-13.7%
44	C(=C\c1ccccc1)/C=N/N1CCN(Cc2ccccc2)CC1	-12.5%	44.7µM*	-30.2%
45	Clc1ccc(/C=N/N2CCN(Cc3ccccc3)CC2)cc1	.	50.1µM*	-13.7%
46	CCOc1ccc(/C=N/N2CCN(Cc3ccccc3)CC2)cc1	.	39.8µM*	-0.8%
47	O=C(NCCC1=CCCCC1)c1ccc2c(c1)ncn2-c1cccc(Cl)c1	.	-26.9%[59 µM]	-30.0%
48	O=C(CN1C(=O)CCSc2ccc(S(=O)(=O)N3CCCC3)cc21)Nc1cccc(Cl)c1	.	2.1%[59 µM]	15.3%

#	Sfp PPTase inh	KDM4E inh	Lamin A splicing
41	.	.	.
42	-0.7%	7.0%	1.4%[46 µM]
43	-3.4%	11.2µM*	.
44	-28.5%	-5.0%	-8.9%[46 µM]
45	-3.5%	.	.
46	2.0%	.	.
47	.	.	-11.9%[46 µM]
48	.	.	14.6%[46 µM]

2 entries from above in a different format:
Results follow in this order: ALDH1A1 block	G9a inh	miR-21 FLuc	Sfp PPTase inh	KDM4E inh	Lamin A splicing
41. Cc1ccc(Cn2c(C(=O)O)c(CNCc3cccs3)c3ccc(C)cc32)cc1
    .	-9.3%[59 µM]	8.0%	.	.	.
48. O=C(CN1C(=O)CCSc2ccc(S(=O)(=O)N3CCCC3)cc21)Nc1cccc(Cl)c1
    .	2.1%[59 µM]	15.3%	.	.	14.6%[46 µM]

Going on with the list:
#	Structure	ALDH1A1 block	G9a inh	miR-21 FLuc
49	COc1ccccc1N=Cc1nc(-c2ccccc2)oc1OC(C)=O	7.08µM*	?	-9.3%
50	CN(C)c1ccc(N=Cc2nc(-c3ccccc3)oc2OC(=O)c2ccccc2)cc1	-11.0%	10.3%[59 µM]	-59.5%
51	CC(=O)Oc1oc(-c2ccccc2)nc1C=Nc1ccc(N(C)C)cc1	0.562µM*	-3.7%	-7.0%
52	CCOc1ccc(CCNC(=O)CCC(=O)N2CCOc3ccccc32)cc1OCC	.	.	-4.6%

#	Sfp PPTase inh	KDM4E inh	Lamin A splicing
49	-9.7%	-0.8%	-7.4%
50	4.6%	5.9%	?
51	5.6%	10.1%	.
52	12.8%	.	.

From PubChem
